Consider 7 compounds from patent US20250320214A1, “ORGANIC COMPOUNDS” (INTRA-CELLULAR THERAPIES, INC., priority 2022, published 2025).

Molecules are shown by their SMILES. A value given as a limit tells only on which side of the number the result lay.

One may read the inhibition as the change of the read-out against control, counted positive when it falls. As usually defined, the Ki is the dissociation constant of the complex between target and ligand, obtained from inhibition or displacement.

In assay [1] the target is SERT (Homo sapiens, UniProt P31645). Nature of the assay: Receptor binding, SERT. Conditions: for inhibition at 0.2 µM: at 200 nM; for inhibition at 0.2 µM / inhibition at 0.1 µM: read-out: SERT maximum inhibition; for inhibition at 0.1 µM: at 100 nM.
Assay [2] addresses 5-HT2A (Homo sapiens, UniProt P28223). Nature of the assay: Receptor binding, 5-HT2A. As to conditions: for 5-HT2A maximum inhibition: 0.1 µM.
For assay [3], the target named is D2 (Homo sapiens, UniProt P14416). Nature of the assay: Receptor binding, D2. Conditions: for inhibition at 0.1 µM: at 100 nM, read-out: D2 maximum inhibition.
Assay [4] deals with D1 (Homo sapiens, UniProt P21728). Nature of the assay: Receptor binding, D1. As to conditions: for inhibition at 0.1 µM: at 100 nM, read-out: D1 maximum inhibition.
Assay [5] concerns the target Mu opioid receptor (Homo sapiens, UniProt P35372). Nature of the assay: Receptor binding, Mu opioid receptor.

On to `O=C1CN2c3c(cccc3[C@@H]3CN(CCCOc4ccc(F)cc4Cl)CC[C@@H]32)N1` [Ex. 19], for which the inhibition at 0.2 µM in assay [1] is 23%. Also, the Ki in assay [2] is 0.0006 µM; in assay [5] it was 0.003 µM. Moreover, the inhibition at 0.1 µM turned out to be 80% in assay [3] and 33% in assay [4].

In the case of `CCc1cc(F)ccc1OCCCN1CC[C@H]2[C@@H](C1)c1cccc3c1N2CC(=O)N3` [Ex. 20], the inhibition at 0.2 µM in assay [1] is 26%. The values for the Ki in assay [2] and in assay [5] were 0.0003 µM and 0.0054 µM, respectively. Further, the inhibition at 0.1 µM stood at 69% in assay [3] and 66% in assay [4].

As to `Cc1cc(OCCCN2CC[C@H]3[C@@H](C2)c2cccc4c2N3CC(=O)N4)ccc1F` [Ex. 21], the inhibition at 0.1 µM is 14% in assay [1], 0% in assay [3] and under 1% in assay [4]. Moreover, the 5-HT2A maximum inhibition in assay [2] is recorded as 77%. The compound also gave a Ki in assay [5] of 0.069 µM.

For the compound `O=C1CN2c3c(cccc3[C@@H]3CN(CCCOc4ccc(F)c(Cl)c4)CC[C@@H]32)N1` [Ex. 22], the values for the inhibition at 0.1 µM in assay [1], in assay [3] and in assay [4] were 6%, 0% and 0%, respectively. The same compound yielded a 5-HT2A maximum inhibition in assay [2] of 65%. In addition, in assay [5], the Ki stood at 0.074 µM.

As to `N#Cc1cc(OCCCN2CC[C@H]3[C@@H](C2)c2cccc4c2N3CC(=O)N4)ccc1F` [Ex. 23], the figures for the inhibition at 0.1 µM in assay [1], in assay [3] and in assay [4] were 13%, 0% and 0%, respectively. The compound also registered a 5-HT2A maximum inhibition in assay [2] of 35%. Also, the Ki in assay [5] worked out at 0.065 µM.

Regarding `N#Cc1cc(F)ccc1OCCCN1CC[C@H]2[C@@H](C1)c1cccc3c1N2CC(=O)N3` [Ex. 25], the Ki worked out at 0.035 µM in assay [1]; 0.0038 µM in assay [2]; 0.043 µM in assay [3]; 0.074 µM in assay [4]; 0.0084 µM in assay [5].

`CN1C(=O)CN2c3c(cccc31)[C@@H]1CN(CCCOc3ccc(F)cc3C#N)CC[C@@H]12` [Ex. 26]: in assay [1], the inhibition at 0.2 µM amounted to 93%. Moreover, the inhibition at 0.1 µM in assay [2] (at 100 nM, read-out: 5-HT2A maximum inhibition) was determined as 91%; in assay [3] it was 14%; in assay [4] it was 93%. Moreover, the Mu maximum inhibition in assay [5] (concentration not printed in this table (row head: Mu (Ki, nM))) was determined as 5%.
